Laboratory results reported in ChEMBL document CHEMBL1143823, “Addition of a C-terminal cysteine improves the anti-herpes simplex virus activity of a peptide containing the human immunodeficiency virus type 1 TAT protein transduction domain” (Antimicrob Agents Chemother, 2007).

Legend:
Human alphaherpesvirus 1 [1] = assay: Inhibition of HSV1 entry in african green monkey Vero cells assessed as beta-galactosidase activity for 1 hr at 37 degC; format: functional, organism-based; details: Human alphaherpesvirus 1, Vero
How it was run: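 HSV-1 hrR3 (MOI 0.02–0.03) adsorbed to precooled Vero cells 1 h at 4°C and rinsed. Peptide added at 4°C, shifted to 37°C for 1 h of entry. Peptide rinsed off; pH 3 citrate 60 s. Lysis at 6 h, initial β-galactosidase rate (CPR-Gal, 570 nm) relative to mock, minus cycloheximide background; triplicates.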

Human alphaherpesvirus 1 [2] = assay: Antiviral activity against HSV1 in african green monkey Vero cells assessed as viral inactivation after 1 hr at 37 degC; format: functional, organism-based; details: Human alphaherpesvirus 1, Vero
How it was run: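 hrR3 virions (1×10^6–6×10^6 PFU/ml) in serum-free DMEM incubated with peptide 1 h at 37°C. Free peptide removed by 1,000-fold dilution or by pelleting at 14,000 × g. Infectivity then titrated on Vero cells in triplicate by lysate β-galactosidase or X-Gal staining. EC50 from dose-response curves.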

Vero = assay: Cytotoxicity against african green monkey Vero cells by trypan blue exclusion assay; format: cell-based; details: chlorocebus sabaeus
How it was run: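 Viability by trypan blue exclusion in Vero cells after peptide exposure.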

Human alphaherpesvirus 1 [3] = assay: Reduction of HSV1 entry rate in african green monkey Vero cells at 37 degC; format: functional; parameters: scale not given: the % may be the effect or the level left
Human alphaherpesvirus 1 [4] = assay: Antiviral activity against HSV1 in african green monkey Vero cells assessed as resistance to viral infection after 1 hr at 37 degC; format: functional, organism-based; details: Human alphaherpesvirus 1, Vero
How it was run: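 Vero monolayers exposed to peptide 1 h at 37°C, rinsed three times, infected with hrR3 (MOI 0.01) 1 h at 37°C without peptide. pH 3 citrate inactivates extracellular virus; lysate β-galactosidase (CPR-Gal, 570 nm) read 6 h later. EC50 from dose-response, triplicates per concentration.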

CCCC[C@H](NC(=O)[C@H](CCCNC(=N)N)NC(=O)CN)C(=O)N[C@@H](CCCC)C(=O)N[C@@H](CCCNC(=N)N)C(=O)N[C@@H](CCCNC(=N)N)C(=O)N[C@@H](CCC(N)=O)C(=O)N[C@@H](CCCNC(=N)N)C(=O)N[C@@H](CCCNC(=N)N)C(=O)N[C@@H](CCCNC(=N)N)C(=O)N[C@@H](CS)C(=O)O
EC50 (Human alphaherpesvirus 1 [1]): 34 µM
EC50 (Human alphaherpesvirus 1 [2]): 900 µM
Activity (Vero): Non-toxic
Activity (Human alphaherpesvirus 1 [3]): 60%
EC50 (Human alphaherpesvirus 1 [4]): > 1200 µM
